# Values of other authors, collected in patent US8088734B2, “Oral delivery of peptides” (Unigene Laboratories Inc., priority 2003, dated 2012).
# Experiments:
# [1] = test system: ovariectomized rat model; settings: cited from earlier work
# [2] = test system: adenylyl cyclase (AC); settings: cited from earlier work
structure (smiles),measurement,setting,value
CC[C@H](C)[C@H](NC(=O)[C@H](CCC(=O)O)NC(=O)[C@H](CO)NC(=O)[C@@H](NC(=O)[C@@H](N)CO)C(C)C)C(=O)N[C@@H](CCC(N)=O)C(=O)N[C@@H](CC(C)C)C(=O)N[C@@H](CCSC)C(=O)N[C@@H](Cc1c[nH]cn1)C(=O)N[C@@H](CC(N)=O)C(=O)N[C@@H](CC(C)C)C(=O)NCC(=O)N[C@@H](CCCCN)C(=O)N[C@@H](Cc1c[nH]cn1)C(=O)N[C@@H](CC(C)C)C(=O)N[C@@H](CC(N)=O)C(=O)N[C@@H](CO)C(=O)N[C@@H](CCSC)C(=O)N[C@@H](CCC(=O)O)C(=O)N[C@@H](CCCNC(=N)N)C(=O)N[C@H](C(=O)N[C@@H](CCC(=O)O)C(=O)N[C@@H](Cc1c[nH]c2ccccc12)C(=O)N[C@@H](CC(C)C)C(=O)N[C@@H](CCCNC(=N)N)C(=O)N[C@@H](CCCCN)C(=O)N[C@@H](CCCCN)C(=O)N[C@@H](CC(C)C)C(=O)N[C@@H](CCC(N)=O)C(=O)N[C@@H](CC(=O)O)C(=O)N[C@H](C(N)=O)C(C)C)C(C)C [PTH1-31NH2],restoration of bone loss,[1],fully active
same,second messenger activity,[2],only AC-stimulating activity
